## Binding of CDR-mutated scFvs to a peptide of the spike HR2 region

The measurements come from Engelhart et al. 2022 (doi:10.1038/s41597-022-01779-4) through the FLAb antibody collection.

Antigen: PDVDLGDISGINAS, a 14-residue peptide of the SARS-CoV-2 spike HR2 region.

Each scFv is VH, a (GGGGS)3 linker, VL, as in the parent Ab-95, and differs from it in the CDRs of the light chain only.
VH: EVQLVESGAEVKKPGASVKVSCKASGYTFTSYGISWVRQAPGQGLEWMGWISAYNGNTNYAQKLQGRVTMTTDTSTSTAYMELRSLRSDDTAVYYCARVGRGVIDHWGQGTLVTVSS
VL: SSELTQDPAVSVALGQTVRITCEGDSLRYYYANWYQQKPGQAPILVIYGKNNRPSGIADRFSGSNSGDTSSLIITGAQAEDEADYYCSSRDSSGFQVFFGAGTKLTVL

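The starting antibody came from a phage panning campaign against this peptide. Library AAYL52 holds single substitutions and randomly drawn double and triple substitutions in the CDRs. Affinity was read by AlphaSeq, a pooled yeast mating assay with surface-displayed partners. Binding brings cells together so that they mate, and sequencing counts the barcode pairs among the diploids. Each replicate has its own calibration line, from reference interactions of the BCL2 family. Each pool was mated in three replicate cultures.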

Positions count from residue 1 of the parent VL; Y29T puts T in place of Y.
Every variant below is changed at Y29 of the VL (sequential numbering).
Values are apparent Kd, the geometric mean of the replicates that gave a signal; lower means stronger binding.
A pair that was not seen in any replicate is written "nd"; this usually means weak binding, but a binder can also be missed.

Variant Y29T N51T S93W gave 33 µM (2 of 3 replicates; controls 3 of 9). With Y29H Y31H the result was 35 nM (3 of 3 replicates; controls 6 of 9). With Y29L N52E G94P the result was 1.1 µM (3 of 3 replicates; controls 6 of 9). With G24C Y29M the result was 1.9 µM (3 of 3 replicates; controls 3 of 9). For E23N Y29M F98E, the assay gave 970 nM (3 of 3 replicates; controls 4 of 9). Variant R28I Y29L S92T showed 2.7 µM (3 of 3 replicates; controls 3 of 9). Variant Y29V Y30T S55M showed 77 nM (3 of 3 replicates; controls 1 of 9).

Variant Y29R S88L S93E showed 460 µM (1 of 3 replicates; controls 0 of 9). Variant E23L R28V Y29K showed 1.7 µM (3 of 3 replicates; controls 7 of 9). Variant Y29F N52E D91M gave 480 µM (2 of 3 replicates; controls 4 of 9). For Y29W Y31Q G94N, the assay gave 8.0 µM (3 of 3 replicates; controls 1 of 9). With Y29W A32Q the result was 120 µM (1 of 3 replicates; controls 1 of 9). Variant Y29T showed 81 nM (3 of 3 replicates; controls 4 of 9). With Y29D Y31V R53L the result was 1.2 µM (3 of 3 replicates; controls 5 of 9).

With R28Y Y29H R53Y the result was 15 µM (1 of 3 replicates; controls 5 of 9). With Y29S P54T V97G the result was 1.7 µM (3 of 3 replicates; controls 4 of 9). For Y29W R53L S92Q, the assay gave 2.1 µM (3 of 3 replicates; controls 4 of 9). Variant S26I Y29Q S92I gave 18 µM (2 of 3 replicates; controls 3 of 9). With L27F Y29Q P54Q the result was 2.5 µM (1 of 3 replicates; controls 3 of 9). For Y29K G49C S88W, the assay gave 16 µM (3 of 3 replicates; controls 6 of 9). Variant Y29F R53F S88E gave nd (0 of 3 replicates; controls 0 of 9).

With Y29K Y31E A32V the result was 54 nM (3 of 3 replicates; controls 2 of 9). With Y29F Y30G A32T the result was 14 nM (3 of 3 replicates; controls 6 of 9). With Y29D N33Q G94Q the result was 19 µM (3 of 3 replicates; controls 4 of 9). Variant G24F L27G Y29N showed 420 nM (3 of 3 replicates; controls 2 of 9). Variant D25K Y29T A32I gave 3.2 µM (3 of 3 replicates; controls 4 of 9). Variant Y29V N33V showed 23 µM (2 of 3 replicates; controls 6 of 9). For Y29G G49F K50H, the assay gave 1.3 µM (2 of 3 replicates; controls 5 of 9).

With Y29R S89C D91Q the result was 2.5 µM (3 of 3 replicates; controls 4 of 9). For Y29K A32M, the assay gave 22 µM (3 of 3 replicates; controls 0 of 9). With E23A Y29R N52S the result was 290 nM (3 of 3 replicates; controls 2 of 9). Variant D25Y Y29M P54L gave 7.9 µM (3 of 3 replicates; controls 7 of 9). With Y29M N51I F98P the result was nd (0 of 3 replicates; controls 0 of 9). With Y29A Y31L R53Y the result was 43 µM (3 of 3 replicates; controls 5 of 9). For Y29T S88C Q96V, the assay gave 180 nM (3 of 3 replicates; controls 2 of 9).

Nonspecific signal, from three strains lacking the peptide, appeared in 28% of pairings of library AAYL52, centred on 8.2 µM (5% of these signals below 800 nM); values are not corrected for it. For each scFv, signals with the empty controls are counted beside the result.